# Binding of CDR-mutated scFvs to a peptide of the spike HR2 region

Values reported by Engelhart et al. 2022, doi:10.1038/s41597-022-01779-4 (FLAb copy).

The target is the same throughout: PDVDLGDISGINAS, from the HR2 region of SARS-CoV-2 spike.

Each scFv is VL, a (GGGGS)3 linker, VH, as in the parent Ab-91, and differs from it in the CDRs of the heavy chain only.
VL: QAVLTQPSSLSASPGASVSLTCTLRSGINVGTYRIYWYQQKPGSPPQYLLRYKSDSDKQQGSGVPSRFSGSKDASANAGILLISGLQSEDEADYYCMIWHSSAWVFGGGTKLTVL
VH: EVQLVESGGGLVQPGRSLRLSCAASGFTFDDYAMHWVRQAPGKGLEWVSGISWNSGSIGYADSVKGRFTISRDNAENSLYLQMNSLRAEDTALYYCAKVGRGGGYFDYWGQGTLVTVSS

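The starting antibody came from a phage panning campaign against this peptide. In library AAYL51, one, two or three CDR residues were substituted; doubles and triples were drawn at random. In AlphaSeq, yeast of one mating type display the scFv and yeast of the other type display the target. The frequency of each diploid, read from paired DNA barcodes, reflects how well the two displayed proteins bind. Read counts were normalised to the haploid input and turned into Kd by a linear fit to BCL2-family pairs of known affinity, for each replicate. There are three technical replicates.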

Substitutions are numbered in sequence along the VH above, starting at 1 (not Kabat). All variants listed here change Y105 of the VH, counted from its first residue. Values are apparent Kd, the geometric mean of the replicates that gave a signal; lower means stronger binding. An entry "nd" has no value in the source: the pair was not observed among the diploids in any replicate. This suggests poor binding but is not conclusive. Empty control strains, which show no peptide, gave a signal in 21% of pairings with library AAYL51; the median was 34 µM and 95% of these signals were weaker than 1.8 µM. No background was subtracted.

- G26F Y105F: 330 nM (3 of 3 replicates)
- G26E G56T Y105V: 9.7 µM (1 of 3 replicates)
- Y105M: 1.9 µM (2 of 3 replicates)
- S52P Y105F: nd (0 of 3 replicates)
- F29E G104K Y105G: 90 µM (1 of 3 replicates)
- Y105F F106T: 11 nM (3 of 3 replicates)
- I51H I58F Y105E: 1.6 µM (1 of 3 replicates)
- Y32F H35F Y105S: 110 µM (3 of 3 replicates)
- M34C H35V Y105V: 200 µM (1 of 3 replicates)
- G26R W53M Y105C: nd (0 of 3 replicates)
- W53I Y105H: 880 nM (3 of 3 replicates)
- G56L S63Q Y105P: nd (0 of 3 replicates)
- I51M S55A Y105H: 570 µM (1 of 3 replicates)
- S55F Y60M Y105T: nd (0 of 3 replicates)
- N54W Y105K F106C: nd (0 of 3 replicates)
- V99A Y105R: 54 µM (1 of 3 replicates)
- N54W S55L Y105P: 71 µM (3 of 3 replicates)
- Y60M K65M Y105N: nd (0 of 3 replicates)
- G59V Y105S: 5.2 µM (1 of 3 replicates)
- A33F Y105G F106K: nd (0 of 3 replicates)
- Y105W D107A: nd (0 of 3 replicates)
- S55I S57K Y105I: nd (0 of 3 replicates)
- S52C Y60C Y105H: 31 µM (1 of 3 replicates)
- G56L G100V Y105H: 9.7 µM (1 of 3 replicates)
- G26A D30T Y105H: 2.0 µM (3 of 3 replicates)
- V64M Y105C D107N: nd (0 of 3 replicates)
- N54V G104S Y105V: 2.9 µM (1 of 3 replicates)
- I51D S57C Y105S: 13 µM (2 of 3 replicates)
- Y105V Y108H: 58 nM (3 of 3 replicates)
- D62V S63Q Y105W: 1.0 µM (1 of 3 replicates)
- F29D V64C Y105H: 83 µM (1 of 3 replicates)
- G50I Y105I: nd (0 of 3 replicates)
- F29D S52E Y105A: nd (0 of 3 replicates)
- G26S G56M Y105D: 81 µM (1 of 3 replicates)
- G50C A61E Y105V: 7.2 µM (1 of 3 replicates)
- M34T Y105Q: nd (0 of 3 replicates)
- M34W H35S Y105D: 110 µM (1 of 3 replicates)

A selection of 5 entries from above:

| changes | apparent Kd | detected |
|---|---|---|
| N54W Y105K F106C | nd | 0/3 |
| G26R W53M Y105C | nd | 0/3 |
| G26A D30T Y105H | 2.0 µM | 3/3 |
| A33F Y105G F106K | nd | 0/3 |
| V64M Y105C D107N | nd | 0/3 |